Data reported in BindingDB's records for PubMed 20126400 (University of Oklahoma, 2010).
Several values for one entry are separate records, joined by “and”; a condition that tells them apart may be missing. Equal entries are not always repeated.

By UniProt entry, the sequences of proteins in these tests, tags left out. Where a name states a change or a piece, a line headed by the entry shows the natural chain unless it says otherwise.
UniProt P08908, whole entry: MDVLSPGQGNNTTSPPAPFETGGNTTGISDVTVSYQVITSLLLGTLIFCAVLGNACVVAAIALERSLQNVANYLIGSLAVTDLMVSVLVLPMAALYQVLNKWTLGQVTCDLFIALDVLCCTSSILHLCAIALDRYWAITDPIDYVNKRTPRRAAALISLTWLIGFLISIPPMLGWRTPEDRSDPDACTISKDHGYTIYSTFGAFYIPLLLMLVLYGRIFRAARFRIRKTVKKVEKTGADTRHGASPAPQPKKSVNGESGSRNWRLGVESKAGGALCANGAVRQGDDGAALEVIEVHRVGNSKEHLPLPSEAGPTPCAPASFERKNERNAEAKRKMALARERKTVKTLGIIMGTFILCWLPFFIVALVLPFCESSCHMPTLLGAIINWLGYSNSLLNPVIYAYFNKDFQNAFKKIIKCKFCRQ
UniProt P28221: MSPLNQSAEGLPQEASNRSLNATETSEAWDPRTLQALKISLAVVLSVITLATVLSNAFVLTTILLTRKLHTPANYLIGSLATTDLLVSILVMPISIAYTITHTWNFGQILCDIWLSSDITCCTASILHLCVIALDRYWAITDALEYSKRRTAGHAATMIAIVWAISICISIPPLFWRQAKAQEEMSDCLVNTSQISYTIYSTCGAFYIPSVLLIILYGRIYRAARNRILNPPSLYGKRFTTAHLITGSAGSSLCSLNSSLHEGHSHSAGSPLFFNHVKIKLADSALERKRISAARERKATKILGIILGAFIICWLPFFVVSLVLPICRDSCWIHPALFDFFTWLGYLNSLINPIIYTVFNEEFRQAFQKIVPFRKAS
UniProt P50406, whole entry: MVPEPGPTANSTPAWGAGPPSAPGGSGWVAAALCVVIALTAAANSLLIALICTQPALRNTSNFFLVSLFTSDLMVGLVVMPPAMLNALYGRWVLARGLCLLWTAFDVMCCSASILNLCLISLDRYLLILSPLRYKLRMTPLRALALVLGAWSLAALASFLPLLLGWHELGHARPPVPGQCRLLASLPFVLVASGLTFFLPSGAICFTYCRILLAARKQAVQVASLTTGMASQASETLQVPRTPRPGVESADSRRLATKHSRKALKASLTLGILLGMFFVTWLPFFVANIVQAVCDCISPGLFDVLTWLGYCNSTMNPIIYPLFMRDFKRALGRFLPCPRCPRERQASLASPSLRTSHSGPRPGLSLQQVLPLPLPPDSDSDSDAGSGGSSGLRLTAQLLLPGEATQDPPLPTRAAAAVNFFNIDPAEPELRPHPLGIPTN
UniProt P28223, whole entry: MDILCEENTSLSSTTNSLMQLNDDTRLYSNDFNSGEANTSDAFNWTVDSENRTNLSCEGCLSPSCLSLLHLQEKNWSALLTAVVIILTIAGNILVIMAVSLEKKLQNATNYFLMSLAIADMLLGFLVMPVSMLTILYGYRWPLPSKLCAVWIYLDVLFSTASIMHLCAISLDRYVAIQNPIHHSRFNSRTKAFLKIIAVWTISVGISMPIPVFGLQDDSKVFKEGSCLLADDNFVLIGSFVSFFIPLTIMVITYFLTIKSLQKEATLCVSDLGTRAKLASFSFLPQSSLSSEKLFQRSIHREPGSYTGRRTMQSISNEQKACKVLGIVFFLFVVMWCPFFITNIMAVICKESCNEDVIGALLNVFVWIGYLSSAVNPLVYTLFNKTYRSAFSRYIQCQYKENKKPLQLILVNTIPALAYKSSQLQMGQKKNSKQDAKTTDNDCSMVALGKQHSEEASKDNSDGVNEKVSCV
UniProt P28335: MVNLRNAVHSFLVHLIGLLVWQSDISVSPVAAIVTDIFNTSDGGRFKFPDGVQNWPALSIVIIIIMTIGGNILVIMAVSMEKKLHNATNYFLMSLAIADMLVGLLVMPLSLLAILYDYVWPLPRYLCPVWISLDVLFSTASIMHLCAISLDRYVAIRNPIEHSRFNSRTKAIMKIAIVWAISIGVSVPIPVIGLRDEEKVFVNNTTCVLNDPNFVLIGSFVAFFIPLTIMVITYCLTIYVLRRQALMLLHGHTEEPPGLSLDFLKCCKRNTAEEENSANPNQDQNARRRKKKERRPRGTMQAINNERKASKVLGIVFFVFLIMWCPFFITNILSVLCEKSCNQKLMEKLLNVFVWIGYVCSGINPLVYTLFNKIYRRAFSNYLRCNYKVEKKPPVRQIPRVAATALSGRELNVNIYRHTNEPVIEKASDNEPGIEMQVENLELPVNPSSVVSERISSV

Tests used:
[1] = target: 5-hydroxytryptamine receptor 1A (Homo sapiens, UniProt P08908); experiment: Ray2010 Assay 74
[2] = target: 5-hydroxytryptamine receptor 1D (Homo sapiens, UniProt P28221); experiment: Ray2010 Assay 74
[3] = target: 5-hydroxytryptamine receptor 6 (Homo sapiens, UniProt P50406); experiment: Ray2010 Assay 74
[4] = target: T1, 5-hydroxytryptamine receptor 2A (Homo sapiens, UniProt P28223); experiment: Ray2010 Assay 74
[5] = target: T1, 5-hydroxytryptamine receptor 2A
[6] = target: T2, 5-hydroxytryptamine receptor 2C (Homo sapiens, UniProt P28335)
[7] = target: T2, 5-hydroxytryptamine receptor 2C; experiment: Ray2010 Assay 74

Structure (SMILES): COc1ccc2[nH]cc(CCN(C)C)c2c1 [3-(2-DIMETHYLAMINOETHYL)-5-METHOXYINDOLE]
- Ki [1]: 0.0019 µM
- Ki [2]: 0.0063 µM
- Ki [3]: 0.0355 µM

Structure (SMILES): COc1ccc2[nH]cc(CCN(C(C)C)C(C)C)c2c1 [5-meo-dipt]
- Ki [4]: > 10 µM
- EC50 [5]: 0.215 µM

Structure (SMILES): CN[C@@H](C)Cc1ccc2c(c1)OCO2 [S-(+)-MDMA]
- EC50 [6]: 0.121 µM

Structure (SMILES): CNC(C)Cc1ccc2c(c1)OCO2 (stereo not drawn) [mdma]
- Ki [7]: > 10 µM
- EC50 [6]: 0.831 µM and 4.3 µM
